Consider one substance from publication PMC5472792, “Bub1 positions Mad1 close to KNL1 MELT repeats to promote checkpoint signalling” (Nature Communications, 2017).

This assay concerns GST-Bub1 425–500. Kind of assay: In vitro phosphorylation of GST-Bub1, mass spectrometry. Type of assay: biochemical, human. Here is the method: To identify mitotic kinases able to phosphorylate Bub1 on Ser459 and Thr461 we performed in vitro phosphorylation assays with candidate kinases. […] However, given the fact that Mps1 phosphorylates the corresponding Thr455 site in budding yeast Bub1 (ref. [37]) we suspected that Mps1 might be the kinase that phosphorylates Thr461. We incubated purified GST-Bub1 encompassing amino acids 425–500 with either purified Cdk1-Cyclin B1 or Mps1 and analysed the samples by mass spectrometry.
A similar set-up was used for analysing the phosphorylated GST-Bub1 except that an EASY-nLC 1200 UHPLC system connected to an Orbitrap Q-Exactive HF was used and the acetonitrile gradient was run for 77 min. The samples were analysed using a ‘fast' acquisition mode with a normalized collision energy (NCE) of 25 and raw data analysed with MaxQuant software suit version 1.5.7.4.
GST- Bub1 (425–500) was expressed in BL21(DE3) cells at 18 °C overnight with 0.5 mM IPTG in the medium. The bacteria were lysed in 50 mM Tris-HCl pH 7.4, 300 mM NaCl, 10% glycerol, 5 mM β-mercaptoethanol, 1 mM PMSF, plus Complete-EDTA free protease inhibitors (Roche) using a high pressure homogenizer. Lysates were cleared by centrifugation and incubated with pre-equilibrated Glutathione-Fast Flow (GE Healthcare) beads for 2 h at 4 °C and eluted with GST-elution buffer at room temperature (50 mM Tris pH 8.8, 300 mM NaCl, 10% glycerol, 5 mM β-mercaptoethanol, 20 mM reduced glutathione). Elutions were pooled and run on Superdex 200 column (GE Healthcare) in PBS with 8.7% glycerol and 5 mM mercaptoethanol. Peak fractions were aliquoted and stored at −80 °C.
Recombinant GST-Bub1 (12 μg) was incubated with 20 units CDK1-CyclinB1 (New England Biolabs), 0,2 μg Mps1 (TTK; Life Technologies) in protein kinase buffer (50 mM Tris pH 7.5, 10 mM MgCl2, 0.1 mM EDTA, 2 mM DTT, 0.01% Brij 35). 500 μM ATP and 125 nM Calyculin A (Cell Signaling) were added and the reactions were incubated at 30 °C for 1 h. […] The band corresponding to GST-Bub1 was cut out and analysed by mass spectrometry.

The mark [1] stands for this setting: GST-Bub1 425-500, 30 °C for 1 h, 500 μM ATP, LC-MS, kinase-free control 0.

Take “Cdk1-Cyclin B1: purified kinase (New England Biolabs) [reference compound]”: under setting [1], the “intensity of phospho-peptide 456-VQPS(Phos)PTVHTK (pS459)” value is on record as 5,59E+08 and the “intensity of phospho-peptide 456-VQPSPT(Phos)VHTK (pT461)” value is listed as 1,89E+08. In addition, the “phosphorylation of GST-Bub1 425–500 (in words)” value (Ser459 and Thr461, mass spectrometry) was “phosphorylation of Ser459 and Thr461”.
